Earlier results as cited in patent US6383762B1, “Methods of obtaining compounds that interact with a human serotonin (5-HT2) receptor” (Synaptic Pharmaceutical Corporation, priority 1989, dated 2002).

By UniProt entry, the sequences of proteins in these tests, tags left out.
UniProt P14842, whole entry: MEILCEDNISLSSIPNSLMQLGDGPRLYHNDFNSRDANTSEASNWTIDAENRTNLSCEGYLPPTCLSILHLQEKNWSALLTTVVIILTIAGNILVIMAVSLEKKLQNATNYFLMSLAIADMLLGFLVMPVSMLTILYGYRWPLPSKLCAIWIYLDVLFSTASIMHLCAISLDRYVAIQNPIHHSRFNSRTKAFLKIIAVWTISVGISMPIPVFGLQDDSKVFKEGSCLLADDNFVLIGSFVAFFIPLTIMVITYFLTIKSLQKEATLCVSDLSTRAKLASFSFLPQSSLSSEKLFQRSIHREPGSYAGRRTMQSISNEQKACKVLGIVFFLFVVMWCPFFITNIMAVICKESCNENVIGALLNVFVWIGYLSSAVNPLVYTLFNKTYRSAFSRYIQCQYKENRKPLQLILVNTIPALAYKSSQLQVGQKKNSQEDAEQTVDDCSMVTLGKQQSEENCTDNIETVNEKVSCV

Molecular target: T1, 5-HT2 receptor in rat cortical membranes (Rattus norvegicus, UniProt P14842)
T1 construct: rather than in rat cortical membranes; host or cells: rat cortical membranes
Conditions: rat cortex; Hoyer et al. 1986; cited from earlier work

For `Cc1nc2sccn2c(=O)c1CCN1CCC(=C(c2ccc(F)cc2)c2ccc(F)cc2)CC1` [RITANSERIN], the Ki is listed as 7.2 nM.
